From patent US9879094B2, “Nucleic acid molecules encoding for BACE1 antibodies” (Genentech, Inc., priority 2010, dated 2018)

Protein sequences, listed by entry. Tags and fused reporters are not part of them. Residues count along the entry.
UniProt P56817, 22-457: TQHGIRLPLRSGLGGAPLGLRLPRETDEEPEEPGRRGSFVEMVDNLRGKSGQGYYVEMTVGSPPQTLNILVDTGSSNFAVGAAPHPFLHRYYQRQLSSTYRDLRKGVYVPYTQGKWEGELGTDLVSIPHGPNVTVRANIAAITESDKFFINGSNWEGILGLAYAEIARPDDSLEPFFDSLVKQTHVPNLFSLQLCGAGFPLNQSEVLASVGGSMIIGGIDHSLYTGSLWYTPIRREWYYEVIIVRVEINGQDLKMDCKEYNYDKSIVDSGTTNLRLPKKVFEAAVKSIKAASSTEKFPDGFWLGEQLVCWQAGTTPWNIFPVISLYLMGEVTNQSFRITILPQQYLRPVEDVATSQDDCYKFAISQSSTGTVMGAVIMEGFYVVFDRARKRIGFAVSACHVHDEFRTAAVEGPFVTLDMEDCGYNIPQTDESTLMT

Biological target: BACE1 (Homo sapiens, UniProt P56817)
Experiment: Competitive ELISA on YW412.8-coated plate
Assay type: binding
Details: YW412.8 IgG coated, biotinylated hBACE1
Protocol: As an indirect method of determining the binding site on BACE1 of the anti-BACE1 antibodies of the invention, a competitive ELISA was performed. Briefly, antibody YW412.8 IgG (1 μg/ml) was coated onto NUNC 96 well Maxisorp immunoplates overnight at 4° C. and blocked at room temperature for 1 hour with blocking buffer PBST (PBS and 1% BSA and 0.05% Tween 20). Serial dilutions of anti-BACE1 antibody YW412.8 or an hBACE1 binding peptide were incubated with a predetermined amount of biotinylated hBACE1 and incubated at room temperature for 60 minutes. The serial dilutions were then added to a YW412.8-coated plate and incubated at room temperature for 30 minutes. Subsequently, the plates were washed with wash buffer (PBS with 0.05% T-20) and developed by the addition of streptavidin labeled with horseradish peroxidase (HRP) for 30 minutes at room temperature. […] HRP-conjugated streptavidin binding to captured biotinylated hBACE1 was measured at a wavelength of 630 nm using standard techniques.
To determine the optimal concentration of biotinylated target protein used for the above competition ELISA assay, NUNC 96 well Maxisorp immunoplates were coated and blocked as described above. […] The sub-saturating concentration of biotinylated hBACE1 was determined from the curve fitting and applied to the competition ELISA from above.

OM99-2 [reference compound]
competition with YW412.8 for binding to hBACE1: No competition
